Experimental melting point values from OPERA 2.9

From the experimental data distributed with OPERA 2.9.

The melting point is given in degrees Celsius. Cells with "n/a" have no entry in this list. The databases behind each value are named after "via".

structure (SMILES) | name | melting point (°C) | via
CC(=O)Nc1cc(N)c(S(=O)(=O)[O-])cc1/N=N/c1cccc(S(=O)(=O)CCOS(=O)(=O)[O-])c1.[Na+].[Na+] | n/a | 155 | eChemPortal
COc1ccc(-c2nnn(CC(=O)O)n2)cc1OC | [5-(3,4-dimethoxyphenyl)-2H-tetrazol-2-yl]acetic acid | 260 | OCHEM
CC(=O)OCCCS(=O)(=O)c1ccc(S(N)(=O)=O)s1 | 3-[(5-Sulfamoyl-2-thienyl)sulfonyl]propyl acetate | 104 | OCHEM
O=C(CCCl)Nc1ccc(F)cc1 | 3-chloro-N-(4-fluorophenyl)propanamide | 110 | OCHEM
CC(=O)CC(=O)c1ccc(F)cc1 | 1-(4-fluorophenyl)butane-1,3-dione | 50 | OCHEM
CC(C)CN1CC(C(=O)O)CC1=O (stereo unspecified) | 1-isobutyl-5-oxopyrrolidine-3-carboxylic acid | 84 | OCHEM
Cc1cccc(Nc2n[nH]c(=S)s2)c1 | 5-m-Tolylamino-[1,3,4]thiadiazole-2-thiol | 197 | OCHEM
C=C(C)C(=O)OCCCCCCCCCCCCCC | 2-Propenoic acid, 2-methyl-, tetradecyl ester | 9.85 | eChemPortal
C[N+](C)([O-])CCCNS(=O)(=O)CCC(F)(F)C(F)(F)C(F)(F)C(F)(F)C(F)(F)C(F)(F)F | n/a | 148 | eChemPortal
Cc1ccc2nc(NCc3ccccc3)sc2c1 | Benzyl-(6-methyl-benzothiazol-2-yl)-amine | 176 | OCHEM
NCc1nnc2ccccn12 | 1-([1,2,4]Triazolo[4,3-a]pyridin-3-yl)methanamine | 132 | OCHEM
O=Cc1sc(Cl)nc1Cl | 2,4-Dichloro-5-thiazolecarboxaldehyde | 40 | OCHEM
COc1cccc(NC(=S)NN)c1 | n-(3-methoxyphenyl)hydrazinecarbothioamide | 169 | OCHEM
Cc1ccc(C(=O)O)cc1S(N)(=O)=O | 4-methyl-3-sulfamoylbenzoic acid | 276 | OCHEM
O=C(O)CCn1ncc(=O)c2ccccc21 | 3-(4-oxocinnolin-1(4H)-yl)propanoic acid | 131 | OCHEM
COc1cc(C=O)ccc1OC(=O)C(C)C | 4-Formyl-2-methoxyphenyl isobutyrate | 29 | eChemPortal
Cc1ccc(NNc2ccc(C)cc2)cc1 | 1,2-Bis(4-methylphenyl)hydrazine | 135 | OCHEM
CCOC(=O)c1[nH]c2ccccc2c1O | Ethyl 3-hydroxy-1H-indole-2-carboxylate | 93 | OCHEM
Cc1ccc(-c2noc(CC#N)n2)cc1 | [3-(4-methylphenyl)-1,2,4-oxadiazol-5-yl]acetonitrile | 57 | OCHEM
Brc1ccc(Oc2cccc(Br)c2)cc1 | 1-Bromo-3-(4-bromophenoxy)benzene | 20 | OCHEM
CCN(CC)S(=O)(=O)c1ccc(C(=O)CBr)cc1 | 4-(bromoacetyl)-N,N-diethylbenzenesulfonamide | 80 | OCHEM
Clc1ncnc2c(Br)cccc12 | 8-Bromo-4-chloroquinazoline | 160 | OCHEM
CCC(C(c1ccc(Cl)cc1)c1ccc(Cl)cc1)[N+](=O)[O-] (stereo unspecified) | Bulan | 65 | OCHEM
Cn1c(-c2ccccc2)c[nH]c1=S | 1-methyl-5-phenyl-1H-imidazole-2-thiol | 181 | OCHEM
Cc1c(C)n(Cc2ccco2)c2ncnc(N)c12 | n/a | 181 | OCHEM
CC(C)(C)OC(=O)N1CCC(CC#N)CC1 | tert-Butyl 4-(cyanomethyl)piperidine-1-carboxylate | 73 | OCHEM
Nc1ccc(-c2nnco2)cc1 | 4-(1,3,4-Oxadiazol-2-yl)aniline | 156 | OCHEM
Nc1ccc(-c2nc3ccccc3[nH]2)cc1 | 4-(1H-Benzoimidazol-2-yl)-phenylamine | 220 | OCHEM
Nn1c(=O)[nH]c2ccccc2c1=O | 3-Amino-1H-quinazoline-2,4-dione | 298 | OCHEM
CC(=O)C1CCCCC1=O (stereo unspecified) | 2-Acetyl-1-cyclohexanone | 26 | OCHEM
O=C1N=c2ccc(Br)cc2=C1NO | 5-bromo-3-(hydroxyamino)indol-2-one | 269 | OCHEM
O=C(O)c1cc(Cl)cc(Cl)c1I | 3,5-dichloro-2-iodo-benzoic Acid | 174 | OCHEM
NC(=O)NC1CCCC1 | cyclopentyl-urea | 193 | OCHEM
N=C(O)C1CNCCN1 (stereo unspecified) | Piperazine-2-carboximidic acid | 143 | OCHEM
O=C(O)CNC(=S)Nc1ccccc1 | Hydantoic acid, 1-phenyl-alpha-thio- | 160 | OCHEM
CCCCOc1cc(C=O)ccc1OC | 3-Butoxy-4-methoxybenzaldehyde | 40 | OCHEM
Cc1ccc(S(=O)(=O)CCC(=O)O)cc1 | 3-[(4-methylphenyl)sulfonyl]propanoic acid | 109 | OCHEM
CCc1ccccc1N1CC(C(=O)O)CC1=O (stereo unspecified) | 1-(2-ethylphenyl)-5-oxopyrrolidine-3-carboxylic acid | 100 | OCHEM
CNS(=O)(=O)c1ccc(Cl)c(C(=O)O)c1 | Benzoic acid, 2-chloro-5-[(methylamino)sulfonyl]- | 172 | OCHEM
O=C(O)Cn1nnc(-c2ccccc2)n1 | (5-Phenyl-2H-tetrazol-2-yl)acetic acid | 181 | OCHEM
CC(=O)O[C@@H]1C[C@]2(C)[C@H](CC[C@@H](O)[C@]2(C)O)[C@@](C=O)(C[C@@H](O)c2ccoc2)[C@@H]1C | Cascarillin | 205 | OCHEM
NN1C(=O)NC(c2ccccc2)(c2ccccc2)C1=O | N-Aminodiphenylhydantoin | 190 | OCHEM
CC(=O)OC1CCC2CCCCC2C1 (stereo unspecified) | Decahydro-2-naphthyl acetate | -76.6 | eChemPortal
Cc1ccc(OCCCC(=O)O)cc1 | 4-(4-methylphenoxy)butanoic acid | 84 | OCHEM
C=CC(C)(C#N)Cc1ccccc1 (stereo unspecified) | 2-Benzyl-2-methyl-3-butenitrile | -21.3 | eChemPortal
N#CC=Cc1ccc(Cl)cc1 | 3-(4-Chlorophenyl)-2-propenenitrile | 46 | OCHEM
Cc1cc(C)c(N)c(S(=O)(=O)O)c1 | Benzenesulfonic acid, 2-amino-3,5-dimethyl- | 317.6 | eChemPortal
COc1ccc(S(=O)(=O)NCC(=O)O)cc1 | (4-Methoxy-benzenesulfonylamino)-acetic acid | 132 | OCHEM
CC(C)(C)c1ccc(OCCC(=O)O)cc1 | 3-(4-tert-butylphenoxy)propanoic Acid | 95 | OCHEM
Clc1ccc2nncn2n1 | 6-chloro[1,2,4]triazolo[4,3-b]pyridazine | 214 | OCHEM
CC1=C(NC(=O)O)/C(=N/C(=O)CN)C=CC1(NC(=O)O)c1cccc(C2=CC=C/C(=N\C(=O)CN)C2C)c1 (stereo partly drawn) | n/a | 202.1 | eChemPortal
CC(C)c1ccc(C(=O)CCl)cc1 | 2-chloro-1-(4-isopropylphenyl)ethanone | 45 | OCHEM
Cc1ccc(S(=O)(=O)OCCc2cccs2)cc1 | 2-(2-Thienyl)ethyl toluene-p-sulphonate | 33.6 | eChemPortal

A selection of 6 entries from above:

structure (SMILES) | name | melting point (°C) | via
Cc1ccc(S(=O)(=O)CCC(=O)O)cc1 | 3-[(4-methylphenyl)sulfonyl]propanoic acid | 109 | OCHEM
NCc1nnc2ccccn12 | 1-([1,2,4]Triazolo[4,3-a]pyridin-3-yl)methanamine | 132 | OCHEM
CC(=O)Nc1cc(N)c(S(=O)(=O)[O-])cc1/N=N/c1cccc(S(=O)(=O)CCOS(=O)(=O)[O-])c1.[Na+].[Na+] | n/a | 155 | eChemPortal
CCC(C(c1ccc(Cl)cc1)c1ccc(Cl)cc1)[N+](=O)[O-] (stereo unspecified) | Bulan | 65 | OCHEM
O=C(O)c1cc(Cl)cc(Cl)c1I | 3,5-dichloro-2-iodo-benzoic Acid | 174 | OCHEM
O=Cc1sc(Cl)nc1Cl | 2,4-Dichloro-5-thiazolecarboxaldehyde | 40 | OCHEM

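These are experimental values that the OPERA curators gathered from public databases to train and test their QSAR models. One number stands for a compound and property, with no spread given. Method, purity and exact conditions of the single measurements are not given. Where a salt, mixture or single isomer is drawn, the source does not say that exactly this form was tested. Some entries may be limits or estimates that an upstream database listed as plain numbers.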